## Yeast mating assay B: variants of the scFv Ab-14

Antigen: PDVDLGDISGINAS, a 14-residue peptide of the SARS-CoV-2 spike HR2 region.

Parent: Ab-14, a human scFv built as VH, the linker GGGGSGGGGSGGGGS, VL. Only the CDRs of the light chain vary.
VH: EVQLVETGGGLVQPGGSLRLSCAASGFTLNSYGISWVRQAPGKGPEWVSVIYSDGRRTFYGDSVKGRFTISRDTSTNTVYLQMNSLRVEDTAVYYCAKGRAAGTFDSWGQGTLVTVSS
VL: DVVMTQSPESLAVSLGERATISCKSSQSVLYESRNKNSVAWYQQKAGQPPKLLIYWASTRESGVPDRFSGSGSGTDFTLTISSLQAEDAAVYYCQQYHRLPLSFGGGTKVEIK

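The starting antibody came from a phage panning campaign against this peptide. These sequences belong to a second round, designed from the earlier measurements on random variants of the parent. Their group label is 14L_GP_Gen (GP: Gaussian process model; Gen: genetic algorithm; a sequence that several methods proposed may carry one label only). The scFvs were displayed on barcoded MATa yeast, the peptide on MATalpha yeast. The frequency of each diploid, read from paired DNA barcodes, reflects how well the two displayed proteins bind. The ratio of observed to expected reads was calibrated, replicate by replicate, on BCL2-family standards whose Kd was known from biolayer interferometry. The assay was run in six technical replicates.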

Variants are written as CDR1, CDR2 and CDR3 of the light chain (limits as in the source). Parent: KSSQSVLYESRNKNSVA, WASTRES, QQYHRLPLS. The read-out is the apparent dissociation constant on a log10 scale (nM): the lower, the stronger. Replicates are averaged; those with no signal do not enter the mean. Where no diploid with the target was found in that replicate, the entry reads "nd": below detection, most likely a poor binder, though not proof of it. The authors averaged sequences with at least three values out of six and counted those with two or fewer as poor binders. Of ten entries with the parent sequence, four were seen in most replicates (averages 0.34 to 2.37), three in one and three in none, so single entries are noisy. A sequence measured in both rounds can read differently, since the two assays cover different ranges. Background: pairings of all light chain designs with three empty control strains gave a value in 4% of cases (median 2.64, 5th percentile 1.59). Values in that range, when seen in few replicates, are hard to tell from nonspecific mating. For each scFv, signals with the empty controls are counted beside the result, with their mean in brackets.

{"CDR-L1": "KLSQSVLYESRWKNSVA", "CDR-L2": "DASTRES", "CDR-L3": "QQYHRLPLS", "replicates, log10 nM": "-0.19 -0.23 -0.23 -0.29 -0.37 -0.08", "log10 Kd (nM), mean": "-0.23", "empty controls": "1/18 (2.02)"}
{"CDR-L1": "KLPQSVLYESRNKNNVA", "CDR-L2": "GASTRES", "CDR-L3": "QQYHRLPLS", "replicates, log10 nM": "-0.18 -0.34 -0.34 -0.34 -0.35 -0.24", "log10 Kd (nM), mean": "-0.30", "empty controls": "0/18"}
{"CDR-L1": "KVSQSELYESRNKNAVA", "CDR-L2": "NASTRES", "CDR-L3": "QQYHRLPLS", "replicates, log10 nM": "0.43 0.51 0.64 0.31 0.33 0.56", "log10 Kd (nM), mean": "0.46", "empty controls": "0/18"}
{"CDR-L1": "KLSQSDLYESRNKNSVA", "CDR-L2": "DASTRCS", "CDR-L3": "QQYHRLPLS", "replicates, log10 nM": "0.02 -0.21 -0.24 -0.30 -0.10 -0.09", "log10 Kd (nM), mean": "-0.15", "empty controls": "0/18"}
{"CDR-L1": "KVKQSVLYESRNKNSVA", "CDR-L2": "EASTRES", "CDR-L3": "QQYHRLPLS", "replicates, log10 nM": "nd nd nd nd nd nd", "log10 Kd (nM), mean": "nd", "empty controls": "0/18"}
{"CDR-L1": "KMSQSVWMESRNKNSVA", "CDR-L2": "EASTRES", "CDR-L3": "QQYHRLPLS", "replicates, log10 nM": "-0.16 -0.32 -0.27 -0.52 -0.33 -0.11", "log10 Kd (nM), mean": "-0.29", "empty controls": "2/18 (2.54)"}
{"CDR-L1": "KFSQSVLYESRNKNSVA", "CDR-L2": "GASQRES", "CDR-L3": "QQYHRLPLS", "replicates, log10 nM": "0.01 -0.10 -0.23 -0.16 -0.10 -0.11", "log10 Kd (nM), mean": "-0.11", "empty controls": "2/18 (3.36)"}
{"CDR-L1": "KLAQSVLYESRNKNSVA", "CDR-L2": "EASTREV", "CDR-L3": "QQYHRLPLS", "replicates, log10 nM": "-0.66 -0.54 -0.64 -0.62 -0.71 -0.92", "log10 Kd (nM), mean": "-0.68", "empty controls": "0/18"}
{"CDR-L1": "KLSQSEGYESRNKNSVA", "CDR-L2": "NASTRES", "CDR-L3": "QQYHRLPLS", "replicates, log10 nM": "-0.32 -0.47 -0.54 -0.52 -0.36 -0.37", "log10 Kd (nM), mean": "-0.43", "empty controls": "1/18 (2.87)"}
{"CDR-L1": "KVSQSVLYESRNKNSVA", "CDR-L2": "NASTRES", "CDR-L3": "QQYHRLPLQ", "replicates, log10 nM": "-0.03 -0.03 -0.15 0.25 -0.22 0.03", "log10 Kd (nM), mean": "-0.02", "empty controls": "0/18"}
{"CDR-L1": "KISQSVLYESRNKNSVA", "CDR-L2": "DASQRES", "CDR-L3": "QQYHRLPLS", "replicates, log10 nM": "-0.05 -0.10 -0.18 -0.37 -0.27 -0.17", "log10 Kd (nM), mean": "-0.19", "empty controls": "1/18 (2.81)"}
{"CDR-L1": "KLQQSEPYESRNKNSVA", "CDR-L2": "NASTRES", "CDR-L3": "QQYHRLPLS", "replicates, log10 nM": "0.37 0.68 0.11 0.56 0.91 0.42", "log10 Kd (nM), mean": "0.51", "empty controls": "0/18"}
{"CDR-L1": "KLEQSELYESRNKNSVA", "CDR-L2": "NASTRLS", "CDR-L3": "QQYHRLPLS", "replicates, log10 nM": "-0.02 -0.11 -0.13 -0.25 -0.20 0.01", "log10 Kd (nM), mean": "-0.12", "empty controls": "1/18 (2.63)"}
{"CDR-L1": "KLQQSDLYESRNKNSVA", "CDR-L2": "DASTRES", "CDR-L3": "QQYHRLPLS", "replicates, log10 nM": "-0.03 -0.10 -0.09 -0.27 -0.38 -0.09", "log10 Kd (nM), mean": "-0.16", "empty controls": "0/18"}
{"CDR-L1": "KLSQSVLYESRNKNSVA", "CDR-L2": "NASTRAS", "CDR-L3": "QQYHRLPLS", "replicates, log10 nM": "0.03 -0.12 -0.17 -0.23 -0.19 0.03", "log10 Kd (nM), mean": "-0.11", "empty controls": "4/18 (3.01)"}
{"CDR-L1": "KLSQSVEYESRNKNSVA", "CDR-L2": "EASTRLS", "CDR-L3": "QQYHRLPLS", "replicates, log10 nM": "1.04 0.57 0.99 1.22 0.74 1.16", "log10 Kd (nM), mean": "0.95", "empty controls": "0/18"}
{"CDR-L1": "HLSQSVLYESRNKNSVA", "CDR-L2": "NASTRMV", "CDR-L3": "QQYHRLPLS", "replicates, log10 nM": "0.08 -0.12 -0.09 -0.23 -0.27 -0.18", "log10 Kd (nM), mean": "-0.14", "empty controls": "2/18 (2.99)"}
{"CDR-L1": "KMSQSWLYESRNKNSVA", "CDR-L2": "NASERES", "CDR-L3": "QQYHRLPLS", "replicates, log10 nM": "-0.32 -0.49 -0.51 -0.87 -0.63 -0.52", "log10 Kd (nM), mean": "-0.56", "empty controls": "1/18 (1.93)"}
{"CDR-L1": "KLPQSVLYESRNKNSVA", "CDR-L2": "SGSTRES", "CDR-L3": "QQYHRLPLS", "replicates, log10 nM": "-0.18 -0.27 -0.43 -0.30 -0.35 -0.14", "log10 Kd (nM), mean": "-0.28", "empty controls": "0/18"}
{"CDR-L1": "KLSQSVLYEQRQKNSVA", "CDR-L2": "NASTRMS", "CDR-L3": "QQYHRLPLS", "replicates, log10 nM": "0.29 0.32 0.18 -0.01 0.18 0.22", "log10 Kd (nM), mean": "0.20", "empty controls": "1/18 (2.38)"}
{"CDR-L1": "KLSMSMLYESRNKNSVA", "CDR-L2": "NASTRES", "CDR-L3": "QQYHRLPLS", "replicates, log10 nM": "0.10 0.00 0.06 0.05 0.01 0.26", "log10 Kd (nM), mean": "0.08", "empty controls": "1/18 (4.74)"}

The closing 2 entries, repeated:

CDR-L1	CDR-L2	CDR-L3	replicates, log10 nM	log10 Kd (nM), mean	empty controls
KLSQSVLYEQRQKNSVA	NASTRMS	QQYHRLPLS	0.29 0.32 0.18 -0.01 0.18 0.22	0.20	1/18 (2.38)
KLSMSMLYESRNKNSVA	NASTRES	QQYHRLPLS	0.10 0.00 0.06 0.05 0.01 0.26	0.08	1/18 (4.74)

Source: Li et al. 2023 (doi:10.1038/s41467-023-39022-2), MIT Lincoln Laboratory and A-Alpha Bio; data file from the FLAb repository.